Measured values reported in ChEMBL document CHEMBL2413034, “Novel β-dicarbonyl derivatives as inhibitors of aminopeptidase N (APN)” (Bioorg Med Chem Lett, 2013).

Amino acid sequences for entries named in this document (tags omitted). A change or cut given only in a name is not applied to a line headed by its entry.
UniProt P15144: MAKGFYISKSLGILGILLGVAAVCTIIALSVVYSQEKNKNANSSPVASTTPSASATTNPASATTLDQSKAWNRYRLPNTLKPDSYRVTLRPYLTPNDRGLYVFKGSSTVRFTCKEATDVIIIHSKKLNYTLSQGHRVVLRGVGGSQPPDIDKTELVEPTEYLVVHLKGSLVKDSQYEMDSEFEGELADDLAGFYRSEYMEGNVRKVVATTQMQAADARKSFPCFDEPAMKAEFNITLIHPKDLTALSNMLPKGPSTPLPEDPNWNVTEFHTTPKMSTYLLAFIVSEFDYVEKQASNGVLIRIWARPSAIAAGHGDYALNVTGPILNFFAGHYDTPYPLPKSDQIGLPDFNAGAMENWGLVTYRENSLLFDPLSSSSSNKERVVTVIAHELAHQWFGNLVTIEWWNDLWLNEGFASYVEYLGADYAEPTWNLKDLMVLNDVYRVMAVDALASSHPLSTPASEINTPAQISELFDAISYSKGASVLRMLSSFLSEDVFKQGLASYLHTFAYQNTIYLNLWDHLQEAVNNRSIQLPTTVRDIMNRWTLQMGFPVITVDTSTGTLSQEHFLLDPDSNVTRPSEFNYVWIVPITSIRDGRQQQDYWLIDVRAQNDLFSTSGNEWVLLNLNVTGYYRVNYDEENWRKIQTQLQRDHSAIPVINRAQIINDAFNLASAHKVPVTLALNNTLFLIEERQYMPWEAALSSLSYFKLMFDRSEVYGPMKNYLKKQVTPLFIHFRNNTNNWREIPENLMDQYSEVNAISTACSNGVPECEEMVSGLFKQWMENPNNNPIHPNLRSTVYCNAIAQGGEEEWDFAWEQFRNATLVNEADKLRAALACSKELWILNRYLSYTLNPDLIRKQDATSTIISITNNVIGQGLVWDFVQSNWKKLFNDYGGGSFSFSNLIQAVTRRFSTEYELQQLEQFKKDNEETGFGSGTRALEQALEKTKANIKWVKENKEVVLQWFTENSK

Target: Aminopeptidase N (Homo sapiens, UniProt P15144)
Test: Inhibition of aminopeptidase N (unknown origin)

COc1cc(/C=C/C(=O)CC(=O)/C=C/c2ccc(O)c(OC)c2)ccc1O [CURCUMIN]
IC50: 10 µM
